Experimental findings from patent publication US20230233514A1, “ANTIVIRAL COMPOUNDS AND METHODS OF USING THE SAME” (priority 2020, published 2023) are described below.

Data set [1] deals with Vero E6 cells. The note with it: 48 hours, CellTiterGlo. In general terms: ATP-based viability assays read luminescence as a measure of living cells.
The subject of data set [2] is Vero E6 cells.

On to Miquelianin/Quercetin 3-glucuronide, for which, in the data set with Vero E6 cells [1], the “concentrations that did not significantly impact Vero E6 cell viability compared to the DMSO treated control” value was “less than or equal to 100 μM” and the “toxicity observed at (and above) concentration” value is 1000 µM. Besides, in the data set on Vero E6 cells [2], the “effect on Host Cell Number (cell viability)” value is “did not show an effect”.
